The results in this text go back to ChEMBL document CHEMBL1133581, “Synthesis and in vitro and in vivo functional studies of ortho-substituted phenylpiperazine and N-substituted 4-N-(o-methoxyphenyl)aminopiperidine analogues of WAY100635” (J Med Chem, 2000).

Protein sequences, listed by entry. Tags and fused reporters are not part of them.
UniProt P19327, whole entry: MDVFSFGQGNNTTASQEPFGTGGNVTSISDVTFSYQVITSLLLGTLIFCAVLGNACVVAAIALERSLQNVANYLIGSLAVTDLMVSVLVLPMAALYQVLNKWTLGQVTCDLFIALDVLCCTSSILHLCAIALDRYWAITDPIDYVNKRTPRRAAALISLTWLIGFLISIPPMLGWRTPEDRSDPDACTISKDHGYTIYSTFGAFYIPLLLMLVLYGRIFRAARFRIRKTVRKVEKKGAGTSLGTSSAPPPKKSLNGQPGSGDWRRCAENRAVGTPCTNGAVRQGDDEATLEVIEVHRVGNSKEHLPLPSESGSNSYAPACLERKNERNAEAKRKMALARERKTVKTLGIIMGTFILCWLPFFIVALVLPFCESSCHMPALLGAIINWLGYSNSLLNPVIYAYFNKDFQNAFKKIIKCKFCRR

SMILES strings stand for the structures. pIC50: −log10 of the molar value. This is a selection: effects in other tests are not listed, and their absence says nothing.

This assay deals with 5-hydroxytryptamine receptor 1A (Rattus norvegicus, UniProt P19327). The conditions noted are these: Hippocampus.

With `COc1ccccc1N(C(=O)C1CCCCC1)C1CCN(CCN(C(=O)C2CCCCC2)c2ccccn2)CC1`, the pIC50 is 6.30.
